Tested on: SC-M1 human GCa cell line
Assay: cytotoxic effect of CYP19A1 inhibitors on SC-M1 cells
Assay type: cell-based
Conditions: 48-hr culture, exemestane within 100 μM treatments

| Compound | cytotoxic effect |
| --- | --- |
| CC(C)(C#N)c1cc(Cn2cncn2)cc(C(C)(C)C#N)c1 [anastrazole] | did not produce obviously cytotoxic effect |
| N#Cc1ccc(C(c2ccc(C#N)cc2)n2cncn2)cc1 [letrozole] | did not produce obviously cytotoxic effect |
